Source: PubChem BioAssay AID677 (Vanderbilt High Throughput Screening Facility, 2007)
Only a part is listed here, and it is no random draw. Active and inactive are the calls of the source.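 The calls were made as follows: active = calcium response below the same-plate mean of wells given acetylcholine alone at its 80%-effect dose, minus 3 SD; inactive = the rest.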

Sequences of proteins named here, by UniProt entry; tags and fusion partners are left off.
UniProt P08482, whole entry: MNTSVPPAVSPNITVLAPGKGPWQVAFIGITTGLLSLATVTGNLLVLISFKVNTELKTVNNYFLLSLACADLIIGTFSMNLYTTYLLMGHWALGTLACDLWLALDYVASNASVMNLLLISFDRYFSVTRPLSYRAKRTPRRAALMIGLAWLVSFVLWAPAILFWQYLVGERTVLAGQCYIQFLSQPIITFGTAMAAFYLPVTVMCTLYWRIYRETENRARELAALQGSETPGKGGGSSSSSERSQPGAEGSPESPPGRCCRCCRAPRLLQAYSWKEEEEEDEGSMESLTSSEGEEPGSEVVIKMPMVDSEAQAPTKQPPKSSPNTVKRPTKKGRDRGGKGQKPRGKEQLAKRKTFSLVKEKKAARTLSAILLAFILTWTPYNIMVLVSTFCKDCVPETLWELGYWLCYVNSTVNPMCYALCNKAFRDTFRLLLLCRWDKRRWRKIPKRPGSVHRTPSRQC

Target: Muscarinic acetylcholine receptor M1 (Rattus norvegicus) (UniProt P08482)
Experiment: blockers of ACh-evoked M1 calcium signal – CHO cells, Fluo-4 calcium, duplicate, confirmation (AID 677);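 also: raw fluorescence intensity difference in arbitrary instrument units and not normalized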
Settings: ACh EC80 antagonism, at 10 µM, hits give low values

Structure (SMILES)	calcium response (max-min fluorescence)
O=C(OC1CN2CCC1CC2)c1cccc(Cl)c1 (stereo not drawn)	active: 53
O=C(OC1CN2CCC1CC2)C12CC3CC(CC(C3)C1)C2 (stereo not drawn)	active: 21.4
O=C(COc1ccccc1)OC1CN2CCC1CC2 (stereo not drawn)	active: 81.5
